B1: mAb 5.14.1 (antibody, part only; not given: light chain, V domains shown, part only)
VH: QVQLVQSGAEVKKPGASVKVSCKASGYTFTGYYMYWVRQAPGQGLEWMGWINPNSGGTNYAQKFQGRVTMTRDTSISTAYMELSRLRSDDTAVYYCARDQGITVAGPFDYWGQGSLVTVSSA
B2: mAb 5.101.1 (antibody, V domains shown)
VH: QVQLVQSGAEVKKPGASVKVSCKASGYTFTGYYMHWVPQAPGQGLEWMGWINPNSGGTNYAQKFQGRVTMTRDTSISTAYMELRRLRSDDTAVYYCARDGGSIPVSGHFDYWGQGTLVTVSS
VL: EIVMTQSPATLSVSPGERATLSCRASQSLISNLAWYQQKPGQAPRLLIFGASTRATGIPARFSGSGSGTEFTLTISSLQSEDFAVYYCHQYNNWWTFGQGTKVEIKR

Sequences of proteins named here, by UniProt entry; tags and fusion partners are left off. A change or cut given only in a name is not applied to a line headed by its entry. A line that says so, or that is headed by a name, gives the form on record, which may keep a tag or linker. Residues count along the entry.
UniProt O35608: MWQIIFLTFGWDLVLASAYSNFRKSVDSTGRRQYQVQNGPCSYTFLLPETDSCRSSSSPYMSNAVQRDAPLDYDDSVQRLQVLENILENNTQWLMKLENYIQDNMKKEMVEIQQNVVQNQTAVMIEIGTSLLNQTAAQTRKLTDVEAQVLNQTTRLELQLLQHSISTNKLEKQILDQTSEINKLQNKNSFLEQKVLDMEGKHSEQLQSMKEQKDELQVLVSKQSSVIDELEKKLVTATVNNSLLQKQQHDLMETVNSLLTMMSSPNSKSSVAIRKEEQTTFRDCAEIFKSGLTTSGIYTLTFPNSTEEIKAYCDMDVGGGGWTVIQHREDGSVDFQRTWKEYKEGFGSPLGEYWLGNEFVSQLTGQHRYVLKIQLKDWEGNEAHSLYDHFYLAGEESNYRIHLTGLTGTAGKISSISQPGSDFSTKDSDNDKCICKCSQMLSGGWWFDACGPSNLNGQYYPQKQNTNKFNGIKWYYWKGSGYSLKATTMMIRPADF
UniProt O15123, 19-496, stated change not applied: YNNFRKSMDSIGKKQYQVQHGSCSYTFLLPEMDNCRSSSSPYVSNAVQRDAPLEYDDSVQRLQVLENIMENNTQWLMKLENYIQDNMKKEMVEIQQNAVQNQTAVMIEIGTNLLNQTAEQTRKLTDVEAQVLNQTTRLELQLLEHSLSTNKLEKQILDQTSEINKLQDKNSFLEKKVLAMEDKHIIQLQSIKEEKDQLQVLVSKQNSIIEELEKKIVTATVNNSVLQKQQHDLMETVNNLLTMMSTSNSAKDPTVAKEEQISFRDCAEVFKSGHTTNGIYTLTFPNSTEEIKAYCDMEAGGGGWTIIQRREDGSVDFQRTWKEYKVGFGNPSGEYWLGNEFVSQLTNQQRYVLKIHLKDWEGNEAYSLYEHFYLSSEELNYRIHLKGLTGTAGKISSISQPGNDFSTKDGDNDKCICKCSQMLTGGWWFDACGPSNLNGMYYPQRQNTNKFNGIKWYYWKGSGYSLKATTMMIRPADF
UniProt O15123, other isoform, or with tags, fused parts or gaps: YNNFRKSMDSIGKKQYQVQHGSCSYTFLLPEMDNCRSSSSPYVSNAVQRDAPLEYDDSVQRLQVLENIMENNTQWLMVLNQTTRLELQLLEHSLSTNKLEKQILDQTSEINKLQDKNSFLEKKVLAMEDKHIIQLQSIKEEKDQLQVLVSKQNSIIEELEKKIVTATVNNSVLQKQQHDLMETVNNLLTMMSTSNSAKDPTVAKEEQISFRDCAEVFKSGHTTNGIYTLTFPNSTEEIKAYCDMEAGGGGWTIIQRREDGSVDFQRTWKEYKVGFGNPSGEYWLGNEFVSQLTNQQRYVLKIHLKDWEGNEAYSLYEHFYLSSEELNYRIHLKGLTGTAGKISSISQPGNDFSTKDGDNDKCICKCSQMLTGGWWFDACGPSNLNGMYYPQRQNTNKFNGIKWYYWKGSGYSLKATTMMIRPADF

Tests used:
[1] = biological target: Mouse/Human Ang-2 StuI chimera (mouse; human) (UniProt O35608); test: ELISA
[2] = biological target: human Ang-2 mutated at positions 365 and 367 (human) (UniProt O15123); test: ELISA
human Ang-2443 (human) = human Ang-2443 (human) (UniProt O15123); test: ELISA
[3] = biological target: human Ang-2 V345M (human) (UniProt O15123); test: ELISA
[4] = biological target: Human Ang-1/2 BsmI chimera (human); test: ELISA
[5] = biological target: human Ang-2 H375Q (human) (UniProt O15123); test: ELISA
[6] = biological target: recombinant human Angiopoietin-2 (human) (UniProt O15123); test: Biacore, mAb captured
[7] = biological target: recombinant human Angiopoietin-2 (human) (UniProt O15123); test: Biacore, mAb captured; kd held constant in fit

Binder | percent binding compared to human Ang-2 [1] | percent binding compared to human Ang-2 [2] | percent binding compared to human Ang-2 (human Ang-2443 (human)) | percent binding compared to human Ang-2 [3] | percent binding compared to human Ang-2 [4] | percent binding compared to human Ang-2 [5] | Kd [6] | kon [6] | koff [7]
B1 | 100% | 100% | 100% | 100% | 100% | 100% | 49 pM | 200000 M⁻¹ s⁻¹ | 1e-05 s⁻¹
B2 |  | 100% |  | 100% | 100% | 100% |  |  | 
